Laboratory results published in publication PMC3115942, “A Novel Synthetic Smoothened Antagonist Transiently Inhibits Pancreatic Adenocarcinoma Xenografts in a Mouse Model” (PLoS ONE, 2011).

Tested on: PANC-1, SUIT-2, PC-3 and FEMX cells
Assay: In vitro antiproliferative assay (MTS), tumor cell lines
Format: cell-based, human
Conditions: 10 µM, 4 day exposure; across PANC-1, SUIT-2, PC-3 and FEMX
Method: Cells were plated at a density of 3000 (THLE-2 and PC-3) and 1000 (PANC-1, SUIT-2 and FEMX) cells per well (on the basis of their growth rate) in 200 µl of medium in a 96-well plate. Medium was changed daily, and after four days, the assay was read using a MTS kit (Promega) according to the instructions of the manufacturer. Graphs display average of percent growth with standard deviation (n = 8).

CC1=C2C[C@H]3[C@@H](CC=C4C[C@@H](O)CC[C@@]43C)[C@@H]2CC[C@]12O[C@@H]1C[C@H](C)CN[C@H]1[C@H]2C [cyclopamine]
growth reduction (MTS): ≤ 30%
